Experimental findings from ChEMBL document CHEMBL4834405, “Structure-Based Design of High-Affinity Macrocyclic FKBP51 Inhibitors” (J Med Chem, 2021) are described below.

A short description of assay [1]: (§1) Selectivity ratio of Kd for displacement of fluorescent tracer 5-(3-(4-((1S,5S,6S)-10-(3,5-dichlorophenylsulfonyl)-2-oxo-3-(pyridin-3-ylmethyl)-3,10-diazabicyclo[4.3.1]decan-5-yl)-1H-1,2,3-triazol-1-yl)propylcarbamoyl)-2-(6-(dimethylamino)-3-(dimethyliminio)-3H-xanthen-9-yl)benzoate from recombinant full length C-terminal FLAG-tagged FJBP12 to Kd for displacement of fluorescent tracer 5-(3-(4-((1S,5S,6S)-10-(3,5-dichlorophenylsulfonyl)-2-oxo-3-(pyridin-3-ylmethyl)-3,10-diazabicyclo[4.3.1]decan-5-yl)-1H-1,2,3-triazol-1-yl)propylcarbamoyl)-2-(6-(dimethylamino)-3-(dimethyliminio)-3H-xanthen-9-yl)benzoate from recombinant full length C-terminal FLAG-tagged FKBP51 (unknown origin).

Assay [2] is described as follows: as §1, with “FKBP12.6 (unknown origin)” for “FJBP12”.
The nature of assay [3]: as §1, with “FKBP52 (unknown origin)” for “FJBP12”.

With `COc1cccc([C@@H](CCc2ccc(OC)c(OC)c2)OC(=O)[C@@H]2CCCCN2C(=O)[C@H](c2cc(OC)c(OC)c(OC)c2)C2CCCCC2)c1`, the Selectivity ratio in assay [1] is 3.1; in assay [2] it was 2.4; in assay [3] it was above 120.
